Measurements taken from article PMC7016908 (ACS Omega, 2020).

Chains of the proteins cited; added tags and fusions are not shown. Residues count along the entry.
UniProt P28335, 33-458: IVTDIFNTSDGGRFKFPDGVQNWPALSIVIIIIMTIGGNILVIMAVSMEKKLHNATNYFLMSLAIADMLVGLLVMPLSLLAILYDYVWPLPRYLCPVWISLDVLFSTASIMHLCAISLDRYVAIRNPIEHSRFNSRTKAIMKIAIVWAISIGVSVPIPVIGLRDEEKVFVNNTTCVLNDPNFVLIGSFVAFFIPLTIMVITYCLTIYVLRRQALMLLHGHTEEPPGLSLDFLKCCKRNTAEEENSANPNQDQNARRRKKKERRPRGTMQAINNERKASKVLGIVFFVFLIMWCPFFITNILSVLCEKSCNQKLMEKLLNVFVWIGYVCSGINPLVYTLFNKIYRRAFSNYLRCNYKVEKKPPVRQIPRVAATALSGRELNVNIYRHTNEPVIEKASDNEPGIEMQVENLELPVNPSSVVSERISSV

Molecular target: human 5-HT2C receptor (Homo sapiens, UniProt P28335)
Test: Radioligand displacement binding, [3H]mesulergine, HeLa-5-HT2C cell membranes
Settings: read-out: KD of radioligand at human 5-HT2C receptor

Substance: [^3H]-mesulergine [reference compound]
- Kd: 0.67 nM
